Laboratory results taken from US10835582B2, “Peptide for preventing hearing loss, and composition comprising same” (GemVax & KAEL CO., LTD., priority 2015, dated 2020).

Assays:
Format in all cases: in vivo, C57/BL6 mice
[1] = test system: hearing threshold, ototoxic animal model administered kanamycin and furosemide; assay: ABR test in the kanamycin and furosemide ototoxic animal model (Experiments D1 and D3)
Protocol: (§1) The auditory brainstem response (ABR) test used in experiments of the present invention to identify hearing loss is an accurate hearing test in which brainwaves from the nerve center of the brain are averaged, which can be obtained by auditory stimulation, and a threshold value of hearing is determined. As the threshold value increases, this indicates hearing loss is more severe.
(§2) For an experiment, an ototoxic animal model was prepared by intraperitoneally administering 1000 mg/kg of kanamycin to C57/BL6 mice (5-week-old, body weight of 15 g to 25 g, female) and injecting 100 mg/kg of furosemide thereinto within 30 minutes.
(§3) 24 ototoxic animal models were classified into experimental groups and a control as follows and an experiment was carried out. The experimental name was indicated as D1 (See FIG. 10).
(§4) Experimental Group 1: 8 ototoxic animal models administered 10 mg/kg of PEP1 via subcutaneous injection on day 1, day 2, and day 3, respectively, after administration of kanamycin and furosemide
Experimental Group 2: 8 ototoxic animal models administered 15 mg/kg of dexamethasone via subcutaneous administration on day 1, day 2, and day 3, respectively after administration of kanamycin and furosemide […]
An ABR test was performed prior to administration of kanamycin and furosemide (day 0), on day 7 after the administration, and on day 14 after the administration (The test was performed in the same manner for both Experiments D1 and D3). Hearing was evaluated using negative stimuli of 8 kHz, 16 kHz, and 32 kHz, and, in ABR, the smallest stimulus intensity showing waveform #5 was determined as a threshold. Prior to drug administration, baseline hearing was measured in all the groups, and measurement was performed after anesthetizing each group via intraperitoneal injection of isoflorane.
Hearing threshold values measured in the ABR test and values of hair cells of each group measured in biopsy were statistically processed and significance thereof was confirmed. […]

[2] = test system: hearing threshold, kanamycin ototoxic animal model; assay: Auditory brainstem response (ABR) test in the kanamycin ototoxic animal model; details: kanamycin 800 mg/kg S.C. + PEP1 10 mg/kg I.P. twice daily for 14 days; 4, 8, 16, 32 kHz; up to 3 weeks; p<0.001 versus kanamycin + saline; FIG. 6
Protocol: as §1
For an experiment, C57/BL6 mice (4-week-old to 6-week-old, body weight of 15 g to 25 g, male) were prepared. As an ototoxic drug, kanamycin in the form of kanamycin sulfate was dissolved in saline solution at a concentration of 40 mg/ml was prepared as a preparation for 800 mg/kg injection administration, and the peptide synthesized according to Example 1, i.e., PEP1, was prepared as a preparation for injection administration by dissolving 100 mg of PEP1 in 10 ml PBS. […]
An ABR test was performed before injection, 1 week after injection, 2 weeks after injection, and 3 weeks after injection. Hearing was evaluated using negative stimuli of 4 kHz, 8 kHz, 16 kHz, and 32 kHz and, in ABR, the smallest stimulus intensity showing waveform #5 was determined as a threshold. Prior to drug administration, baseline hearing was measured in all the groups, and measurement was performed after anesthetizing each group via intraperitoneal injection of isoflorane. […]

[3] = test system: hair cells of the cochlea, kanamycin ototoxic animal model; assay: Biopsy of cochlea and ampulla (hair cells, H&E) in the kanamycin ototoxic animal model; details: kanamycin 800 mg/kg S.C. + PEP1 10 mg/kg I.P. twice daily for 14 days
Protocol: For an experiment, C57/BL6 mice (4-week-old to 6-week-old, body weight of 15 g to 25 g, male) were prepared. As an ototoxic drug, kanamycin in the form of kanamycin sulfate was dissolved in saline solution at a concentration of 40 mg/ml was prepared as a preparation for 800 mg/kg injection administration, and the peptide synthesized according to Example 1, i.e., PEP1, was prepared as a preparation for injection administration by dissolving 100 mg of PEP1 in 10 ml PBS.
Kanamycin, which is an ototoxic drug, and the peptide according to the present invention, i.e., PEP1, were administered to the prepared experimental animals after dividing the animals into experimental groups.
Experimental Group 1: kanamycin 800 mg/kg S.C (subcutaneous injection)+saline 0.1 ml/10 g mice I.P. (intraperitoneal injection)
Experimental Group 2: kanamycin 800 mg/kg S.C.+PEP1 10 mg/kg I.P.
A dose for each experimental group was injected twice daily for 14 days.
Three weeks after the experiment started, the mice were euthanized, and then blood samples were collected therefrom, the mice were subjected to perfusion fixation with 4% paraformaldehyde (pH 7.4) diluted with 0.1 M phosphate buffered saline, and an organ (the temporal bone) was extracted from each mouse.
To observe an overall structure of the cochlea and the vestibule, the mice were fixed in 4% paraformaldehyde (pH 7.4) at 4° C. for 24 hours, and then maintained in 0.135M EDTA for three days to allow decalcification to occur. Tissue blocks were made using an optical cutting temperature compound (OCT compound) as an embedding agent for freezing and then stored at −80° C. and made in slide forms, followed by H&E staining.
To quantitatively analyze the temporal bone on the left side, a whole mount of the cochlea was prepared. The cochlear bony labyrinth was cautiously separated from the cochlear membranous labyrinth using a micro-instrument and a microscope and the apical turn and the basal turn were separated. […]

[4] = test system: hair cells at basal, mid, and apex of the cochlea, ototoxic animal model administered kanamycin and furosemide; assay: Biopsy of hair cell viability in the kanamycin and furosemide ototoxic animal model (Experiments D1 and D3); details: for viability of hair cells at basal, mid, and apex of the cochlea (confocal observation): PEP1 10 mg/kg or dexamethasone 15 mg/kg S.C.
Protocol: as §2, §3, §4
Experimental Group 2: 8 ototoxic animal models administered 15 mg/kg of dexamethasone via subcutaneous administration on day 1, day 2, and day 3, respectively after administration of kanamycin and furosemide
Control 1: 8 ototoxic animal models administered saline solution on day 1, day 2, and day 3, respectively after administration of kanamycin and furosemide
In addition, to evaluate experimental results (i.e., a difference in effects according to administration time of an experimental substance) after administering an ototoxic drug to ototoxic animal models and taking more time for the ototoxicity to progress, 24 ototoxic animal models were classified into experimental groups and a control and an experiment was carried out. The experimental name was indicated as D3 (see FIG. 10).
Experimental Group 3: 8 ototoxic animal models administered 10 mg/kg of PEP1 via subcutaneous injection on day 3, day 4, and day 5, respectively after administration of kanamycin and furosemide
Experimental Group 4: 8 ototoxic animal models administered 15 mg/kg of dexamethasone via subcutaneous administration on day 3, day 4, and day 5, respectively after administration of kanamycin and furosemide
Control 2: 8 ototoxic animal models administered saline solution on day 3, day 4, and day 5, respectively after administration of kanamycin and furosemide
On day 14 after administration of kanamycin and furosemide, mice on which the ABR test was completed were euthanized, and then otic capsules were extracted therefrom and a degree of damage to hair cells was observed using a confocal scanning microscope.
Hearing threshold values measured in the ABR test and values of hair cells of each group measured in biopsy were statistically processed and significance thereof was confirmed. In this case, an ANOVA test was used.

## CC[C@H](C)[C@H](NC(=O)[C@H](Cc1ccccc1)NC(=O)[C@H](CCCNC(=N)N)NC(=O)[C@H](CC(C)C)NC(=O)[C@H](CCCNC(=N)N)NC(=O)[C@H](CO)NC(=O)[C@@H](NC(=O)[C@H](CC(C)C)NC(=O)[C@H](CC(C)C)NC(=O)[C@H](C)NC(=O)[C@@H]1CCCN1C(=O)[C@H](CCCNC(=N)N)NC(=O)[C@H](C)NC(=O)[C@@H](N)CCC(=O)O)[C@@H](C)O)C(=O)N1CCC[C@H]1C(=O)N[C@@H](CCCCN)C(=O)O [PEP1]
[1]; Experiment D1: 10 mg/kg S.C. on days 1, 2, 3 after kanamycin and furosemide, significant at 32 kHz (p=0.008), FIG. 11
  ABR hearing threshold value on day 14, versus the saline solution control: smaller hearing threshold value
[1]; Experiment D3: 10 mg/kg S.C. on days 3, 4, 5 after kanamycin and furosemide, significant at 8 kHz and 16 kHz (p=0.014), FIG. 12
  ABR hearing threshold value on day 14, versus the saline solution control and the dexamethasone group: smaller hearing threshold value
[1]; day 0, day 7 and day 14, 10 mg/kg S.C., FIG. 13
  ABR hearing threshold values according to administration time of PEP1, Experiment D1 versus D3: no significant difference in hearing threshold values
[2]
  change in ABR hearing threshold value over time after drug administration: a change in the threshold value was insignificant over time
[3]; FIG. 5
  H&E staining of frozen cochlear and ampullar tissue sections: normal cochlear hair cells and normal ampullar sensory epithelium were conserved
[3]; biopsy after three weeks, FIG. 2
  observation of hair cells at the basal turn, the middle turn, and the apical turn of the cochlea: no damage to hair cells was observed in all the sites
[3]; p<0.001, FIG. 3
  number of hair cells at the middle turn and the basal turn of the cochlea, versus the kanamycin + saline group: greater number of hair cells
[4]; Experiment D1: dosing on days 1, 2, 3, biopsy on day 14, FIG. 14
  viability of hair cells at basal, mid, and apex of the cochlea (confocal observation): normal hair cells were observed
[4]; Experiment D1, 10 mg/kg S.C. on days 1, 2, 3, significant at mid and basal (p=0.006), FIG. 16
  percentage of normal hair cells at basal, mid, and apex of the cochlea, versus the saline solution control: higher than that of saline solution-administered Control 1
[4]; Experiment D1, PEP1 10 mg/kg versus dexamethasone 15 mg/kg S.C. on days 1, 2, 3, FIG. 16
  percentage of normal hair cells, versus the dexamethasone group: higher than that of dexamethasone-administered Experimental Group 2
[4]; Experiment D3: dosing on days 3, 4, 5, biopsy on day 14, FIG. 15
  viability of hair cells at basal, mid, and apex of the cochlea (confocal observation): normal hair cells were observed
[4]; Experiment D3, 10 mg/kg S.C. on days 3, 4, 5, significant at mid and basal (p=0.011), FIG. 17
  percentage of normal hair cells at basal, mid, and apex of the cochlea, versus the saline solution control: higher than that of saline solution-administered Control 2
[4]; Experiment D3, PEP1 10 mg/kg versus dexamethasone 15 mg/kg S.C. on days 3, 4, 5, FIG. 17
  percentage of normal hair cells, versus the dexamethasone group: higher than that of dexamethasone-administered Experimental Group 4
[4]; biopsy on day 14, 10 mg/kg S.C., FIG. 18
  percentage of normal hair cells according to administration time of PEP1, Experiment D1 versus D3: did not show a significant difference
